Test results from PMC8769072, “Proteome‐scale mapping of binding sites in the unstructured regions of the human proteome” (Molecular Systems Biology, 2022).

Sequences of proteins named here, by UniProt entry; tags and fusion partners are left off.
UniProt O00629, whole entry: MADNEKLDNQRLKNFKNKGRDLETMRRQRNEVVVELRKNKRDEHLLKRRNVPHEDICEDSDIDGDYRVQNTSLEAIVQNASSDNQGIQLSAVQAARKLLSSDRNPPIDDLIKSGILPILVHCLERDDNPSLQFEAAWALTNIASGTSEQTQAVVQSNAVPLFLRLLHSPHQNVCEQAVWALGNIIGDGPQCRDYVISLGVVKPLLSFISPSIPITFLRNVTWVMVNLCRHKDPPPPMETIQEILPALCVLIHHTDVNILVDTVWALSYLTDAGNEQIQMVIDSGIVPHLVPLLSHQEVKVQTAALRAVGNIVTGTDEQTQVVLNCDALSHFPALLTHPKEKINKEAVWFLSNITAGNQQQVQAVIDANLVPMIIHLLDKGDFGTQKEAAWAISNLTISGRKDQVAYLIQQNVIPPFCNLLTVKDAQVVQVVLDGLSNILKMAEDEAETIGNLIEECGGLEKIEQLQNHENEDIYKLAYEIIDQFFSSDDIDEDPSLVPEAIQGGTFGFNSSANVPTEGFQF

Target: KPNA4 ARM (importin subunit alpha-3, armadillo repeat domain) (human) (UniProt O00629)
Assay: fluorescence polarisation; competition: unlabelled peptide in serial dilution against KPNA4 ARM (master mix at four times the KD) with the probe FITC-NCOR2(1307-1322), probe of the minor pocket; 50 mM KPO4 pH 7.5; Ki calculated from IC50

PSPKRKLEEPVLEFRP (C-terminal amide) [ZNF532 1139-1154 peptide]
Ki: 360 nM
